Test results published in US20220089593A1, “PDE9 INHIBITOR AND USE THEREOF” (TRANSTHERA SCIENCES (NANJING), INC., priority 2019, published 2022).

By UniProt entry, the sequences of proteins in these tests, tags left out. Residues count along the entry.
UniProt O76083, 1-533 isoform O76083-2: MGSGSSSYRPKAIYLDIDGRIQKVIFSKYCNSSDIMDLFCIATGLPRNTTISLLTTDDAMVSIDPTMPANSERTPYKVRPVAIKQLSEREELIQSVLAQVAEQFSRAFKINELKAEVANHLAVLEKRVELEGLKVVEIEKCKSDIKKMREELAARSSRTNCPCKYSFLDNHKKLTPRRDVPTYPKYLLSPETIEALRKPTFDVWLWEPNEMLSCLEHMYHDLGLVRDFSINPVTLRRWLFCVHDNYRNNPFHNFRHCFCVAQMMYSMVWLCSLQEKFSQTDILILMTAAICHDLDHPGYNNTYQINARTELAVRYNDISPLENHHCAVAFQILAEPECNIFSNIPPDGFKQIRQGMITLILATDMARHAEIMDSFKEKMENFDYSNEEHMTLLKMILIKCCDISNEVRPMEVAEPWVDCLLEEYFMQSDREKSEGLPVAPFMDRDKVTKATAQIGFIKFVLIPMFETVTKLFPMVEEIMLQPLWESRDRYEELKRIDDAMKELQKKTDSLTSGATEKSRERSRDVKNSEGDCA

Target: T1, PDE9A2 enzyme (Homo sapiens, UniProt O76083)
T1 construct: purchased BPS 60090
Assay: PDE9 enzymatic evaluation
Assay type: biochemical
Conditions: PDE9A2 enzyme (BPS), fluorescence reading 480 nm/535 nm, room temperature

Question: `COC1(C)CCN(c2c(C#N)c(=O)[nH]c3cnc(C4CC4)cc23)CC1` [Compound 164, 6-cyclopropyl-4-(4-methoxy-4-methylpiperidin-1-yl)-2-oxo-1,2-dihydro-1,7-naphthyridine-3-carbonitrile] was tested. Which IC50 did it give?
Answer: 25 nM
